Results reported in ChEMBL document CHEMBL2375356, “Design, synthesis and biological evaluation of new classes of thieno[3,2-d]pyrimidinone and thieno[1,2,3]triazine as inhibitor of vascular endothelial growth factor receptor-2 (VEGFR-2)” (Eur J Med Chem, 2013).

Test system: HUVEC
Test: Antiangiogenic activity in HUVEC assessed as inhibition of VEGF-induced tube formation after 24 hrs by phalloidin-sulforhodamine staining method
Format: functional, cell-based
Conditions: Homo sapiens

O=c1[nH]c(CN2CCCCC2)nc2cc(-c3cn(Cc4ccccc4)c4ccccc34)sc12
inhibition: Dose-dependent effect
